This note sets out measurements from patent publication US11406644B2, “Tropomyosin-related kinase (TRK) inhibitors” (Genzyme Corporation, priority 2013, dated 2022).

Protein sequences, listed by entry. Tags and fused reporters are not part of them. Residues count along the entry.
UniProt Q16620, 456-822: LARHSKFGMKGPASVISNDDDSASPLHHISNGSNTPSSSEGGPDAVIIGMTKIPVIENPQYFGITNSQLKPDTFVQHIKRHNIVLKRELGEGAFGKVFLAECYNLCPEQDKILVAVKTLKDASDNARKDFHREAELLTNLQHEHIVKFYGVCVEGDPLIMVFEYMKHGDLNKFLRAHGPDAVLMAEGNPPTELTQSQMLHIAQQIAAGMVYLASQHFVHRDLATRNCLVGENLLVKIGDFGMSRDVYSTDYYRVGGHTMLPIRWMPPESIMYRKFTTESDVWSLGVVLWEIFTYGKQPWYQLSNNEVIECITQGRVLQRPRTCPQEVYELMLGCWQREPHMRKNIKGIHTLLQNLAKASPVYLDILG

One assay concerns the target TrkB (Homo sapiens (Human), UniProt Q16620). The assay can be described thus: TrkB activity, off-chip mobility shift assay (LabChip 3000). The assay is classed as biochemical. An excerpt: Reagents and consumables were purchased from Sigma Aldrich, Carna Biosciences, or Caliper Life Sciences. All assay reaction conditions for IC50 determinations were within the linear range with respect to time and enzyme concentration. […] The LabChip 3000 separates and measures the fluorescent signal of fluorescein labeled peptide substrate and fluorescein labeled peptide product present in each well. Results are expressed as percent conversion by measuring peak height for both the substrate and product and dividing the product peak height by the sum of peak heights for both substrate and product.

The subject of assay [1] is Male Lewis rats with PGPS knee arthritis. The experiment in a line: Reactivated peptidoglycan-polysaccharide (PGPS) knee arthritis. Type of assay: in vivo, rat. Particulars: 0.06 mg intra-articular on day −7. The text has this:
Male Lewis rats were acclimated to the testing facility for 7 days. The rats were housed in 5 per cage in shoe-box polycarbonate cages with wire tops, wood chip bedding and suspended food and water bottles.
On day −21, the male Lewis rats were randomized into treatment groups by body weight. The rats were anesthetized and injected with peptidoglycan-polysaccharide (PGPS) into the right knee to induce PGPS arthritis. Arthritis was reactivated on days 0 and 14 by an IV tail injection of PGPS.
The rats were weighed at baseline on days 0, 4, 14 and 18. Knee thickness was measured by caliper at baseline and on days 0, 2, 4, 14, 16 and 18. Gait analysis occurred on days 0-4 and 14-18, with video recording of selected animals on days 3 and 17. Gait analysis was performed by applying ink to the ventral surface of the foot and documenting weight bearing during movement across paper.
The animals were terminated at day 18. […]
Body weights, gait deficiency and caliper measurements were analyzed using a one-way analysis of variance (1-way ANOVA) with Dunnett's multiple comparison post-test. Gait scores were analyzed using a Kruskal-Wallis test (non-parametric ANOVA) with Dunn's multiple comparison post-test. Histopathology scores were analyzed using a Kruskal-Wallis test (non-parametric ANOVA) with Dunn's multiple comparison post-test.

By IC50 is commonly meant the point on the concentration scale where inhibition reaches its midpoint.

Consider `CCOc1cc(Cn2cnc3cc(N4CCN(C)CC4)cnc32)ccc1OCc1ccc(OC)nc1` [Ex. 3-28, 3-(3-Ethoxy-4-((6-methoxypyridin-3-yl)methoxy)benzyl)-6-(4-methylpiperazin-1-yl)-3H-imidazo[4,5-b]pyridine], for which the IC50 at TrkB came out at 179 nM. `C[C@]12C=CC(=O)C=C1CC[C@H]1[C@@H]3C[C@@H](O)[C@](O)(C(=O)CO)[C@@]3(C)C[C@H](O)[C@@]12F` [Triamcinolone, reference compound]: the knee caliper measurements result in assay [1] (days 0, 2, 4, 16, 18) was “significantly reduced”. Further, the “gait scores and deficiency” value in assay [1] (first reactivation (days 1-4) and days 15, 17, 18 of second reactivation) was “significantly reduced”.
